MITF TRPM1 HTS – activators of MITF-driven TRPM1 promoter reporter, primary screen, cell-based, SK-MEL-5, luciferase, single point; SK-MEL-5 TRPM1-promoter luciferase, 24 h; % of positive control, neutral wells = 0; activation, % at 12.5 µM; actives 0.75% (n = 300,000);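 active means mean activation of at least 80% with every replicate also reaching 80%; inconclusive means mean reaches 80% but some replicate falls short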;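 further: 0% = neutral control wells and 100% = parthenolide positive control wells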
PglD inh – C. jejuni PglD acetyltransferase inhibitors, primary screen, biochemical, DTNB colorimetric, single point | UDP-N-acetylbacillosamine N-acetyltransferase PglD (Campylobacter jejuni) | purified PglD enzyme, DTNB colorimetric CoA detection | inhibition, % at 12.5 µM | actives 0.098% (n = 360,000); in the data active means inhibition above about 16%, passing the limit was not always enough; inconclusive means no clear call, values can overlap the other calls
UUG fidelity – alters start codon recognition fidelity in yeast. S. cerevisiae UUG-firefly luciferase reporter, luminescence/redox ratio. AID 602363. activity score, % at 18.7 µM. hit rate 0.13% among 350,000;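 active = replicate mean at a twofold rise or more, about +100% in these data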;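 note: firefly luciferase made from a UUG start codon reports start codon fidelity; reporter light over untreated wells divided by growth signal over untreated wells; some hits fall short of that in this replicate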
esBAF inh – Bmi1 luciferase reporter increase in mESCs, primary screen, esBAF inhibitor project, mouse ES cells, Bmi1 luciferase knock-in, single point; 24 h; 100% = twice the neutral-well signal; reporter increase, % at 12.5 µM; actives 2% (n = 350,000); in the data active means activation above about 40%; inconclusive means no clear call, values can overlap the other calls;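 further: 0% = median of the plate's neutral control wells and 100% = double that signal; a rise in the Bmi1 reporter signal indicates esBAF inhibition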
miR-122 sensor – miR-122 Renilla sensor signal increase in Huh7, primary screen, miR-122 inhibitor project, cell-based, single point, plate reader; actives 0.3% (n = 340,000); activation (reporter increase), % at 12.5 µM; Huh7 miR-122 Renilla luciferase sensor, 48 h; neutral wells = 0, positive control = 100;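 active means mean replicate activation score at least 90 and every replicate individually at or above 90; inconclusive means only one of the two criteria met; inactive means neither criterion met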;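 further: higher luciferase means less miR-122 activity so hits act as miR-122 inhibitors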
Wnt act – Wnt/beta-catenin pathway activators, primary screen, cell-based, plate reader, single point; Wnt/beta-catenin reporter cell assay, activator; activation, % at 9.35 µM; actives 1.2% (n = 300,000); in the data active means activation above about 30%, passing the limit was not always enough; inconclusive means no clear call, values can overlap the other calls;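 further: 0% = neutral control wells and 100% = positive control wells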
Active calls of the source: *; [ ] = remark or other dose. Hits are enriched below; roughly 2.8% of the tested compounds scored in any of these assays.

For C[C@@H]1CN([C@H](C)CO)C(=O)c2cc(N(C)C)ccc2O[C@@H]1CN(C)Cc1ccc(C(=O)Nc2ccccc2N)cc1 the results were PglD inh 1, UUG fidelity -1, esBAF inh -16 and miR-122 sensor 220*[16.7 µM].
Screening C[C@H]1CN([C@@H](C)CO)C(=O)c2cc(N(C)C)ccc2O[C@H]1CN(C)Cc1ccc(C(=O)Nc2ccccc2N)cc1 returned PglD inh 8, esBAF inh -6 and miR-122 sensor 120*[16.7 µM].
Screening C[C@@H]1CN([C@@H](C)CO)C(=O)Cc2cc(NC(=O)CCCCCC(=O)Nc3ccccc3N)ccc2O[C@H]1CN(C)C returned PglD inh 21*, UUG fidelity 51, esBAF inh -1 and miR-122 sensor 4[16.7 µM].
For C[C@H](CO)N1C[C@H](C)[C@H](CN(C)Cc2ccc(C(=O)Nc3ccccc3N)cc2)Oc2ccc(NC(=O)Nc3ccc(F)cc3)cc2CC1=O the results were esBAF inh -29 and miR-122 sensor 267*[16.7 µM].
`C[C@H](CO)N1C[C@H](C)[C@H](CN(C)Cc2ccc(Cl)c(Cl)c2)Oc2ccc(N(C)C)cc2C1=O` gave PglD inh -1, UUG fidelity 1, esBAF inh -9 and miR-122 sensor 3[16.7 µM].
`Cc1noc(C)c1NC(=O)Nc1ccc2c(c1)CC(=O)N([C@@H](C)CO)C[C@H](C)[C@@H](CN(C)Cc1ccc(Oc3ccccc3)cc1)O2` gave PglD inh -2, UUG fidelity -8, esBAF inh -2 and miR-122 sensor -6[16.7 µM].
`CC(=O)Nc1ccc2c(c1)C(=O)N(C)[C@@H]1CC[C@@H](CC(=O)NCCCN3CCOCC3)O[C@@H]1CO2` gave PglD inh -2, UUG fidelity -3, esBAF inh 1 and miR-122 sensor 33[16.7 µM].
Screening C[C@H](CO)N1C[C@H](C)[C@H](CN(C)Cc2ccc(C(=O)Nc3ccccc3N)cc2)Oc2ccc(N(C)C)cc2C1=O returned PglD inh -4, UUG fidelity 11, esBAF inh -34 and miR-122 sensor inconclusive.
For C[C@@H]1CN([C@H](C)CO)C(=O)Cc2cc(N(C)C)ccc2O[C@H]1CN(C)Cc1ccc(C(=O)Nc2ccccc2N)cc1 the results were PglD inh 5, UUG fidelity -1, esBAF inh -24 and miR-122 sensor 85[16.7 µM].
`C[C@@H]1CN([C@H](C)CO)C(=O)Cc2cc(N(C)C)ccc2O[C@@H]1CN(C)Cc1ccc(C(=O)Nc2ccccc2N)cc1` gave PglD inh -3, UUG fidelity 8, esBAF inh -17 and miR-122 sensor 130*[16.7 µM].
C[C@@H]1CN([C@H](C)CO)C(=O)c2cc(N(C)C)ccc2O[C@H]1CN(C)Cc1ccc(C(=O)Nc2ccccc2N)cc1 was read as PglD inh 2, UUG fidelity 4, esBAF inh -26 and miR-122 sensor 112*[16.7 µM].
Screening COc1ccc(/C=C/C2=NC(=C\N(C)C)/C(=O)O2)cc1 returned MITF TRPM1 HTS 47, PglD inh -15, UUG fidelity 6, esBAF inh 51*, miR-122 sensor -7 and Wnt act -1.
`COCC(=O)Nc1ccc2c(c1)C(=O)N(C)[C@H]1CC[C@@H](CC(=O)Nc3ccccc3)O[C@H]1CO2` gave PglD inh 2, UUG fidelity 3, esBAF inh -3 and miR-122 sensor 6[16.7 µM].
For COc1ccc(S(=O)(=O)N(C)C[C@@H]2Oc3ccc(NC(=O)CCC(F)(F)F)cc3C(=O)N([C@H](C)CO)C[C@@H]2C)cc1 the results were PglD inh 0, UUG fidelity 0, esBAF inh 4 and miR-122 sensor 2[16.7 µM].
`N#Cc1ncccc1CCc1cccc(Cl)c1` gave MITF TRPM1 HTS 44, PglD inh 4, UUG fidelity -4, esBAF inh 43*, miR-122 sensor -3 and Wnt act 0.
`COc1ccc(-c2nc3nc(C)cc(C)n3n2)cc1` gave MITF TRPM1 HTS 44, PglD inh 1, UUG fidelity -16, esBAF inh 24, miR-122 sensor 24 and Wnt act 33*.
For C/C(=N\NC(=O)c1ccncc1)c1cccc(NC(=O)c2ccc(C(C)(C)C)cc2)c1 the results were MITF TRPM1 HTS 37, PglD inh 4, UUG fidelity -27, esBAF inh 38, miR-122 sensor 2 and Wnt act 35*.
CC(C)(C)c1ccc(C(=O)Nc2cccc([N+](=O)[O-])c2)cc1 was read as MITF TRPM1 HTS 88*.
Screening O=C(Nc1cccc(Cl)c1)c1ccc2c(c1)OCCO2 returned MITF TRPM1 HTS 71, PglD inh 3, UUG fidelity -28, esBAF inh 30, miR-122 sensor -2 and Wnt act -1.
`C/C(=N/NC(=O)c1ccc2c(c1)OCO2)c1cccc([N+](=O)[O-])c1` gave MITF TRPM1 HTS 126*, PglD inh 1, UUG fidelity 4, esBAF inh 31 and Wnt act -2.

Next section; the last three above are carried over.
CC(C)(C)c1ccc(C(=O)Nc2cccc([N+](=O)[O-])c2)cc1 was read as MITF TRPM1 HTS 88*.
Screening O=C(Nc1cccc(Cl)c1)c1ccc2c(c1)OCCO2 returned MITF TRPM1 HTS 71, PglD inh 3, UUG fidelity -28, esBAF inh 30, miR-122 sensor -2 and Wnt act -1.
`C/C(=N/NC(=O)c1ccc2c(c1)OCO2)c1cccc([N+](=O)[O-])c1` gave MITF TRPM1 HTS 126*, PglD inh 1, UUG fidelity 4, esBAF inh 31 and Wnt act -2.
Screening O=C(Nc1cccc([N+](=O)[O-])c1)c1ccc2c(c1)OCCO2 returned MITF TRPM1 HTS 62, PglD inh -3, UUG fidelity 5, miR-122 sensor -6 and Wnt act 47*.
C[C@H]1CN([C@@H](C)CO)C(=O)c2cc(-c3cccc(F)c3)cnc2O[C@@H]1CN(C)C(=O)C1CCC1 was read as PglD inh 0, UUG fidelity -4, esBAF inh 2 and miR-122 sensor -8[16.7 µM].
Screening Cc1ccc(S(=O)(=O)N(C)C[C@@H]2OCCCC[C@@H](C)Oc3ccc(NC(=O)c4ccccc4)cc3C(=O)N([C@@H](C)CO)C[C@H]2C)cc1 returned PglD inh 2, UUG fidelity -4, esBAF inh 2 and miR-122 sensor -9[16.7 µM].
`C[C@@H]1CN([C@@H](C)CO)C(=O)c2cc(C#Cc3ccc(F)cc3)cnc2O[C@H]1CN(C)C(=O)Nc1ccc(F)cc1` gave PglD inh -1, UUG fidelity -4 and miR-122 sensor 2[16.7 µM].
For COc1ccccc1C#Cc1ccc([C@@H]2[C@@H](CO)N3CCCCN(C(=O)C4CCCC4)C[C@H]23)cc1 the results were PglD inh 2, UUG fidelity -16 and miR-122 sensor 4[16.7 µM].
CC/C(=N\NC(=O)c1ccc2c(c1)OCO2)C12CC3CC(CC(C3)C1)C2 was read as MITF TRPM1 HTS 10, PglD inh 1, UUG fidelity -10, esBAF inh 1, miR-122 sensor 181* and Wnt act 20.
